The test system of this assay is RPT. In words: Induction of Mitochondrial biogenesis in rabbit RPT cells at 10 to 3000 nM after 24 hrs by FCCP-OCR assay relative to control. Format: functional, cell-based. The conditions noted are these: Oryctolagus cuniculus. A digest of the protocol:
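Primary cultures of rabbit renal proximal tubule cells, grown under improved conditions favouring aerobic respiration, were exposed to compound (10–3,000 nM) for 24 h. FCCP-uncoupled oxygen consumption rate was then read on a Seahorse XF-96. Plates included vehicle (DMSO <0.5%), SRT1720 10 μM positive control and blanks. Results are expressed as a ratio or percent fold change versus DMSO, mean ± s.e.m., N=4. A ratio >1.15 was classed as MB.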

SMILES strings stand for the structures. Calls of active or inactive are those of the source. The calls are words filed in the database; no cut-off is given here.

For the molecule `COc1ccc(CC(C)NCC(O)c2ccc(O)c(NC=O)c2)cc1` (stereo unspecified), the result was Active.
